Results published in PubChem BioAssay AID1274 (Emory University Molecular Libraries Screening Center, 2008).
The entries are a selection whose mix differs from that of the whole data set. Active and inactive are the calls of the source.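 How the source made its calls: active means inhibition above about 30% (limit read from the data); inactive means the rest.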

Protein sequences, listed by entry. Tags and fused reporters are not part of them.
UniProt P14598, whole entry: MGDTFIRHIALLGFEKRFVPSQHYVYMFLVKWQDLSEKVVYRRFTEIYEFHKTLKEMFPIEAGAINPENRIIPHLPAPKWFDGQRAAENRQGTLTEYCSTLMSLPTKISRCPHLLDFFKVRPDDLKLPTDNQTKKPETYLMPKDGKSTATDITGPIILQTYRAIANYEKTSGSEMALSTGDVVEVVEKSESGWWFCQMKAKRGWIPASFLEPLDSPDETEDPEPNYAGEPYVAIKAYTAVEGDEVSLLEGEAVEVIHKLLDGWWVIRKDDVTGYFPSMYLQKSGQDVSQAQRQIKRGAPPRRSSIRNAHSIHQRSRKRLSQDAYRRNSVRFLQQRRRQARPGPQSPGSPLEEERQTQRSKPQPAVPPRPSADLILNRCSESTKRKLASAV

Molecular target: Neutrophil cytosol factor 1 (Homo sapiens) (UniProt P14598)
Assay: p47phox/p22phox peptide binding inhibitors, primary screen, biochemical, uHTS, NADPH oxidase regulatory subunit (AID 1274);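 further: 0% = p47phox with labelled peptide and 100% = labelled peptide alone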
Settings: fluorescence polarization, 2 h, at 24.7 µM, stronger effect = higher value

| SMILES | inhibition |
| --- | --- |
| O=[As](O)(c1ccccc1Br)c1ccccc1Br | inactive: -2.86% |
